From patent US7488745B2, “Compounds for the treatment of inflammatory disorders” (Schering Corporation, priority 2004, dated 2009)

By UniProt entry, the sequences of proteins in these tests, tags left out. Residues count along the entry.
UniProt P78536, 215-477 S266A/N452Q limits assumed: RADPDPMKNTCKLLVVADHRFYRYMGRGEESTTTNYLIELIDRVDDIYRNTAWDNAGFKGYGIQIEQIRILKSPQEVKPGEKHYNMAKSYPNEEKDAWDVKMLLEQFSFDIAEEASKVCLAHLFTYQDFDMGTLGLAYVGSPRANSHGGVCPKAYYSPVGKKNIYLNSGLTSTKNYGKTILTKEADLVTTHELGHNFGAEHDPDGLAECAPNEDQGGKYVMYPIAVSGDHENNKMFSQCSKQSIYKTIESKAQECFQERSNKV

Target: purified catalytic domain of recombinant human TACE (rhTACEc) (Homo sapiens, UniProt P78536, N452Q/S266A)
Assay: TACE kinetic assay: cleavage of internally quenched peptide substrate SPDL-3 (fluorescence)
[1] = Ki Rating, TACE inhibitory activity, Table 3000
[2] = Ki (nM), Specific TACE inhibitory activity (Ki values)
[3] = Ki (nM), TABLE 6000, Ki printed as class symbols A-D

In the case of `Nc1ncc(-c2ccc([C@]3(CN4Cc5ccc(F)cc5C4=O)NC(=O)NC3=O)cc2)cn1` [Compound 8001], the Ki [1] is reported as < 10 nM.

`O=C1NC(=O)[C@](CN2Cc3ccc(OCC4CC4)cc3C2=O)(c2ccc(-c3cnc(O)c(Cl)c3)cc2)N1` [Compound 8002] was tested, and the Ki [1] was < 10 nM.

`O=C1NC(=O)[C@](CN2Cc3ccc(O)cc3C2=O)(c2ccc(-c3cnc(O)c(Cl)c3)cc2)N1` [Compound 8003] was tested, and the Ki [1] was < 10 nM.

In the case of `O=C1NC(=O)[C@](CN2Cc3ccc(F)cc3C2=O)(c2ccc(-c3cc(O)nc4ccccc34)cc2)N1` [Compound 8004], the Ki [1] is reported as < 10 nM.

`O=C1NC(=O)[C@](CN2Cc3ccc(F)cc3C2=O)(c2ccc(-c3cc(C(F)(F)F)nc4c(C(F)(F)F)cccc34)cc2)N1` [Compound 8005] gave a Ki [1] of 100 to 1000 nM.

With `O=C1NC(=O)[C@](CN2Cc3ccc(OCC#Cc4cnc5ccccc5c4)cc3C2=O)(c2ccc(F)cc2)N1` [Compound 8006] the Ki [1] was 10 to 100 nM.

With `O=C1NC(=O)C(CN2Cc3ccc(OCC#CC4CC4)cc3C2=O)(c2ccc(F)cc2)N1` (centres unmarked) [Compound 8007] the Ki [1] was < 10 nM.

With `O=C1NC(=O)C(CN2Cc3ccc(F)cc3C2=O)(c2cccnc2)N1` (centres unmarked) [Compound 8008] the Ki [1] was 10 to 100 nM.

`O=C1NC(=O)[C@](CN2Cc3ccc(OCC#CC4CC4)cc3C2=O)(c2ccc(F)cc2)N1` [Compound 8009] was tested, and the Ki [2] was 0.79 nM and the Ki [1] was < 10 nM.

In the case of `CCC#CCOc1ccc2c(c1)C(=O)N(C[C@@]1(c3ccc(F)cc3)NC(=O)NC1=O)C2` [Compound 8010], the Ki [1] is reported as < 10 nM.

For `COc1ccc2c(c1)C(=O)N(C[C@@]1(c3ccc(-c4ccncc4)cc3)NC(=O)NC1=O)C2` [Compound 8011], the Ki [2] was 0.64 nM and the Ki [1] was < 10 nM.

With `COc1ccc2c(c1)C(=O)N(C[C@@]1(c3ccc(-c4cnc(O)c(Cl)c4)cc3)NC(=O)NC1=O)C2` [Compound 8013] the Ki [1] was < 10 nM.

In the case of `COc1ccc2c(c1)C(=O)N(C[C@@]1(c3ccc(-c4nccs4)cc3)NC(=O)NC1=O)C2` [Compound 8015], the Ki [2] is reported as 0.63 nM and the Ki [1] is reported as < 10 nM.

`COc1ccc2c(c1)C(=O)N(C[C@@]1(c3ccc(-c4cccnc4O)cc3)NC(=O)NC1=O)C2` [Compound 8017] was tested, and the Ki [1] was < 10 nM.

In the case of `COc1ccc2c(c1)C(=O)N(C[C@@]1(c3ccc(-n4cccn4)cc3)NC(=O)NC1=O)C2` [Compound 8018], the Ki [1] is reported as < 10 nM.

In the case of `COc1ccc2c(c1)CN(C[C@@]1(c3ccc(-c4ccncc4)cc3)NC(=O)NC1=O)C2=O` [Compound 8019], the Ki [2] is reported as 1 nM and the Ki [1] is reported as < 10 nM.

With `O=C1NC(=O)[C@](CN2Cc3cc(O)ccc3C2=O)(c2ccc(-c3ccncc3)cc2)N1` [Compound 8020] the Ki [1] was < 10 nM.

With `COc1ccc2c(c1)C(=O)N(C[C@@]1(c3ccc(-n4ccc(C(F)(F)F)n4)cc3)NC(=O)NC1=O)C2` [Compound 8021] the Ki [1] was < 10 nM.

`COc1ccc2c(c1)C(=O)N(C[C@@]1(c3ccc(-c4ccnc(C)c4)cc3)NC(=O)NC1=O)C2` [Compound 8022] was tested, and the Ki [1] was < 10 nM.

`COc1ccc2c(c1)C(=O)N(C[C@@]1(c3nccs3)NC(=O)NC1=O)C2` [Compound 9002C] was tested, and the Ki [3] was < 10 nM.

For `COc1ccc2c(c1)C(=O)N(C[C@]1(c3nccs3)NC(=O)NC1=O)C2` [Compound 9002D], the Ki [3] was 10 to 100 nM.

`COc1ccc2c(c1)C(=O)N(C[C@@]1(c3cnn(C(C)C)c3)NC(=O)NC1=O)C2` [Compound 9003E] was tested, and the Ki [2] was 2.8 nM and the Ki [3] was < 10 nM.

With `COc1ccc2c(c1)C(=O)N(C[C@@]1(c3cnn(-c4ccc(F)cc4)c3)NC(=O)NC1=O)C2` [Compound 9003F] the Ki [3] was < 10 nM.

`COc1ccc2c(c1)C(=O)N(C[C@@]1(c3cnn(C4CCCC4)c3)NC(=O)NC1=O)C2` [Compound 9003G] was tested, and the Ki [3] was < 10 nM.

`COc1ccc2c(c1)C(=O)N(C[C@@]1(c3cnn(CC(C)C)c3)NC(=O)NC1=O)C2` [Compound 9003H] was tested, and the Ki [3] was < 10 nM.

In the case of `COc1ccc2c(c1)C(=O)N(C[C@@]1(c3cnn(C(C)(C)C)c3)NC(=O)NC1=O)C2` [Compound 9003J], the Ki [3] is reported as < 10 nM.

With `COc1ccc2c(c1)C(=O)N(C[C@@]1(c3cnn([C@@H]4CCOC4)c3)NC(=O)NC1=O)C2` [Compound 9003K] the Ki [3] was < 10 nM.

In the case of `COc1ccc2c(c1)C(=O)N(C[C@@]1(c3cnn([C@H]4CCOC4)c3)NC(=O)NC1=O)C2` [Compound 9003L], the Ki [3] is reported as < 10 nM.

In the case of `COc1ccc2c(c1)C(=O)N(C[C@@]1(c3cn[nH]c3)NC(=O)NC1=O)C2` [Compound 9003M], the Ki [3] is reported as < 10 nM.

With `COc1ccc2c(c1)C(=O)N(C[C@@]1(c3ccc(-c4csc(N)n4)cc3)NC(=O)NC1=O)C2` [Compound 9004B] the Ki [3] was < 10 nM.

For `CNc1nc(-c2ccc([C@]3(CN4Cc5ccc(OC)cc5C4=O)NC(=O)NC3=O)cc2)cs1` [Compound 9004C], the Ki [3] was < 10 nM.

For `COc1ccc2c(c1)C(=O)N(C[C@@]1(c3ccc(-c4csc(C)n4)cc3)NC(=O)NC1=O)C2` [Compound 9004D], the Ki [3] was < 10 nM.

In the case of `COc1ccc2c(c1)C(=O)N(C[C@@]1(c3cc4ccccc4s3)NC(=O)NC1=O)C2` [Compound 9004E], the Ki [3] is reported as < 10 nM.

`COc1ccc2c(c1)C(=O)N(C[C@@]1(c3nc(-c4ccc(F)cc4)cs3)NC(=O)NC1=O)C2` [Compound 9005] was tested, and the Ki [3] was < 10 nM.

In the case of `COc1ccc2c(c1)C(=O)N(C[C@@]1(c3cc4cnccc4o3)NC(=O)NC1=O)C2` [Compound 9200], the Ki [2] is reported as 0.78 nM and the Ki [3] is reported as < 10 nM.

With `COc1ccc2c(c1)C(=O)N(C[C@@]1(c3csc(N)n3)NC(=O)NC1=O)C2` [Compound 9203] the Ki [3] was < 10 nM.

In the case of `COc1ccc2c(c1)C(=O)N(C[C@@]1(c3csc(NC(C)C)n3)NC(=O)NC1=O)C2` [Compound 9204], the Ki [3] is reported as < 10 nM.

For `COc1ccc2c(c1)C(=O)N(C[C@@]1(c3csc(C)n3)NC(=O)NC1=O)C2` [Compound 9205], the Ki [3] was < 10 nM.

With `COc1ccc2c(c1)C(=O)N(C[C@@]1(c3cn4ccccc4n3)NC(=O)NC1=O)C2` [Compound 9206] the Ki [3] was < 10 nM.

For `COc1ccc2c(c1)C(=O)N(C[C@@]1(c3cc4cc(C(F)(F)F)cnc4o3)NC(=O)NC1=O)C2` [Compound 9207], the Ki [3] was < 10 nM.

`COc1ccc2c(c1)C(=O)N(C[C@@]1(c3cc4cc(Cl)cnc4o3)NC(=O)NC1=O)C2` [Compound 9208] was tested, and the Ki [3] was < 10 nM.

For `COc1ccc2c(c1)C(=O)N(C[C@@]1(c3cc4cc(F)cnc4o3)NC(=O)NC1=O)C2` [Compound 9209], the Ki [3] was < 10 nM.

`COc1ccc2c(c1)C(=O)N(C[C@@]1(c3cc4cc(Br)cnc4o3)NC(=O)NC1=O)C2` [Compound 9210] was tested, and the Ki [3] was < 10 nM.

In the case of `COc1ccc2c(c1)C(=O)N(C[C@@]1(c3cc4cc(N)cnc4o3)NC(=O)NC1=O)C2` [Compound 9211], the Ki [3] is reported as < 10 nM.

For `COc1ccc2c(c1)C(=O)N(C[C@@]1(c3cc4cc(-c5nnn[nH]5)cnc4o3)NC(=O)NC1=O)C2` [Compound 9212], the Ki [3] was < 10 nM.

With `COc1ccc2c(c1)C(=O)N(C[C@@]1(c3cc4cc(F)ccc4o3)NC(=O)NC1=O)C2` [Compound 9213] the Ki [3] was < 10 nM.

For `COc1ccc2c(c1)C(=O)N(C[C@@]1(c3cc4ccc(F)cc4o3)NC(=O)NC1=O)C2` [Compound 9214], the Ki [3] was < 10 nM.

In the case of `COc1ccc2c(c1)C(=O)N(C[C@@]1(c3cc4cc(F)c(F)cc4o3)NC(=O)NC1=O)C2` [Compound 9215], the Ki [3] is reported as < 10 nM.

With `COc1ccc2c(c1)C(=O)N(C[C@@]1(c3cc4cc(F)cc(F)c4o3)NC(=O)NC1=O)C2` [Compound 9216] the Ki [3] was < 10 nM.

For `COc1ccc2c(c1)C(=O)N(C[C@@]1(c3cc4cccnc4o3)NC(=O)NC1=O)C2` [Compound 9217], the Ki [2] was 0.7 nM and the Ki [3] was < 10 nM.

With `COc1ccc2c(c1)C(=O)N(C[C@@]1(c3cc4cc(F)ccc4s3)NC(=O)NC1=O)C2` [Compound 9218] the Ki [3] was < 10 nM.

With `COc1ccc2c(c1)C(=O)N(C[C@@]1(CCc3ccc[nH]c3=O)NC(=O)NC1=O)C2` [Compound 9219] the Ki [3] was < 10 nM.

For `COc1ccc2c(c1)C(=O)N(C[C@@]1(c3cc4ccncc4o3)NC(=O)NC1=O)C2` [Compound 9220], the Ki [2] was 0.75 nM and the Ki [3] was < 10 nM.

With `COc1ccc2c(c1)C(=O)N(C[C@@]1(c3cc4cncnc4o3)NC(=O)NC1=O)C2` [Compound 9221] the Ki [3] was < 10 nM.

`COc1ccc2c(c1)C(=O)N(C[C@@]1(c3cc4cnccc4s3)NC(=O)NC1=O)C2` [Compound 9222] was tested, and the Ki [3] was < 10 nM.

`COc1ccc2c(c1)C(=O)N(C[C@@]1(c3cc4cncnc4s3)NC(=O)NC1=O)C2` [Compound 9223] was tested, and the Ki [3] was < 10 nM.

With `COc1ccc2c(c1)C(=O)N(C[C@@]1(c3cc[nH]n3)NC(=O)NC1=O)C2` [Compound 9224] the Ki [3] was < 10 nM.

For `COc1ccc2c(c1)C(=O)N(C[C@@]1(c3cc4ncc(F)cc4o3)NC(=O)NC1=O)C2` [Compound 9225], the Ki [2] was 1.18 nM and the Ki [3] was < 10 nM.

In the case of `COc1ccc2c(c1)C(=O)N(C[C@@]1(c3cc4c(F)cncc4o3)NC(=O)NC1=O)C2` [Compound 9226], the Ki [3] is reported as < 10 nM.

With `COc1ccc2c(c1)C(=O)N(C[C@@]1(c3cc4cncc(F)c4o3)NC(=O)NC1=O)C2` [Compound 9227] the Ki [2] was 2.14 nM and the Ki [3] was < 10 nM.

`COc1ccc2c(c1)C(=O)N(C[C@@]1(c3cc4cncc(C)c4o3)NC(=O)NC1=O)C2` [Compound 9228] was tested, and the Ki [3] was < 10 nM.

`COc1ccc2c(c1)C(=O)N(C[C@@]1(/C=C3\OC(=O)c4ncccc43)NC(=O)NC1=O)C2` [Compound 9229] gave a Ki [3] of 10 to 100 nM.

For `COc1ccc2c(c1)C(=O)N(C[C@@]1(c3cc4ccncc4[nH]3)NC(=O)NC1=O)C2` [Compound 9230], the Ki [3] was < 10 nM.

With `COc1ccc2c(c1)C(=O)N(C[C@@]1(c3cc4ncccc4[nH]3)NC(=O)NC1=O)C2` [Compound 9231] the Ki [3] was < 10 nM.

In the case of `COc1ccc2c(c1)C(=O)N(C[C@@]1(c3cc4cnccc4[nH]3)NC(=O)NC1=O)C2` [Compound 9232], the Ki [3] is reported as < 10 nM.

`COc1ccc2c(c1)C(=O)N(C[C@@]1(c3cc4cccnc4[nH]3)NC(=O)NC1=O)C2` [Compound 9233] was tested, and the Ki [3] was < 10 nM.

In the case of `COc1ccc2c(c1)C(=O)N(C[C@@]1(/C(Cl)=C/c3ccc4ccccc4n3)NC(=O)NC1=O)C2` [Compound 9234], the Ki [3] is reported as < 10 nM.

`COc1ccc2c(c1)C(=O)N(C[C@@]1(/C(Cl)=C\c3ccc4ccccc4n3)NC(=O)NC1=O)C2` [Compound 9235] was tested, and the Ki [3] was < 10 nM.

`COc1ccc2c(c1)C(=O)N(C[C@@]1(CCc3ccc(F)cc3)NC(=O)NC1=O)C2` [Compound 9236] was tested, and the Ki [3] was < 10 nM.

With `COc1ccc2c(c1)C(=O)N(C[C@@]1(/C=C/c3ccc(F)cc3)NC(=O)NC1=O)C2` [Compound 9237] the Ki [3] was < 10 nM.
